Here are results for 22 molecules from US20260232830A1, “ANTIGEN BINDING MOLECULE SPECIFICALLY BINDING TO EGFR AND MUC1, DRUG CONJUGATE THEREOF, AND MEDICAL USE THEREOF” (Jiangsu Hengrui Pharmaceuticals Co., Ltd., priority 2023, published 2026).

Where a chain is given by its changes, count along the chain named.

The labels stand for the following.
B1: ChiM4: chimeric antibody of M4: murine VH/VL (SEQ ID NO: 4/5) with human constant regions (SEQ ID NO: 69/70) (antibody)
heavy: QVQLQQSGAELARPGASVKLSCKASGYSFTTYGVPWVKQRTGQGLEWIGDIYPRSGNTYYNEKFKGKATLTADKSSDTVFMELRSLSSEDSAVYFCAREDYDNYPYALDYWGQGTSVTVSSASTKGPSVFPLAPSSKSTSGGTAALGCLVKDYFPEPVTVSWNSGALTSGVHTFPAVLQSSGLYSLSSVVTVPSSSLGTQTYICNVNHKPSNTKVDKKV[human IgG1 Fc not spelt out]
light: EIVLTQSPAIIAASPGEKVTITCSASSSVFNMNWYQQKPGSSPKIWIYDISKLASGVPGRFSGSGSGTSFSLTINSMEAEDVGTYYCQQRSFYPPTFGGGTKVEIKRTVAAPSVFIFPPSDEQLKSGTASVVCLLNNFYPREAKVQWKVDNALQSGNSQESVTEQDSKDSTYSLSSTLTLSKADYEKHKVYACEVTHQGLSSPVTKSFNRGEC
B2: M6-H5L1: humanized antibody of M6: huM6VH5 + huM6VL1 (antibody)
heavy: EVQLVQSGAEVKKPGASVKVSCKASGYRFIPYWIEWVRERPGHGLEWMGEILPGTGRTNYNEKFKGRVTFTADTSTNTVYMELSSLTSEDTAVYYCARYGEDTSGGYYAVDYWGQGTTVTVSSASTKGPSVFPLAPSSKSTSGGTAALGCLVKDYFPEPVTVSWNSGALTSGVHTFPAVLQSSGLYSLSSVVTVPSSSLGTQTYICNVNHKPSNTKVDKKV[human IgG1 Fc not spelt out]
light: DIVMTQSPDSLAVSLGERATINCRASESVNILGTNLIHWYQQKPGQPPKLLIYHASNLETGVPDRFSGSGSRTDFTLTISSLQAEDVAVYYCLQSRKIPWTFGGGTKVEIKRTVAAPSVFIFPPSDEQLKSGTASVVCLLNNFYPREAKVQWKVDNALQSGNSQESVTEQDSKDSTYSLSSTLTLSKADYEKHKVYACEVTHQGLSSPVTKSFNRGEC
B3: M6-H7L1: humanized antibody of M6: huM6VH7 + huM6VL1 (antibody)
heavy: B2 heavy with S88N
light: B2 light
B4: M6-H6L1: humanized antibody of M6: huM6VH6 + huM6VL1 (antibody)
heavy: B2 heavy with S85Q
light: B2 light
B5: M6-H7L2: humanized antibody of M6: huM6VH7 + huM6VL2 (antibody)
heavy: B2 heavy with S88N
light: EIVLTQSPATLSLSPGERATLSCRASESVNILGTNLIHWYQQKPGQAPKLLIYHASNLETGIPARFSGSGSRTDFTLTISSLEPEDFAVYYCLQSRKIPWTFGGGTKVEIKRTVAAPSVFIFPPSDEQLKSGTASVVCLLNNFYPREAKVQWKVDNALQSGNSQESVTEQDSKDSTYSLSSTLTLSKADYEKHKVYACEVTHQGLSSPVTKSFNRGEC
B6: M6-H5L2: humanized antibody of M6: huM6VH5 + huM6VL2 (antibody)
heavy: B2 heavy
light: B5 light
B7: M6-H2L2: humanized antibody of M6: huM6VH2 + huM6VL2 (antibody)
heavy: B2 heavy with E39Q, R40A, H43Q, T87R, E101D
light: B5 light
B8: M6-H7L3: humanized antibody of M6: huM6VH7 + huM6VL3 (antibody)
heavy: B2 heavy with S88N
light: B5 light with E1D, L4M, F87V
B9: M6-H6L3: humanized antibody of M6: huM6VH6 + huM6VL3 (antibody)
heavy: B2 heavy with S85Q
light: B5 light with E1D, L4M, F87V
B10: M6-H1L2: humanized antibody of M6: huM6VH1 + huM6VL2 (antibody)
heavy: B2 heavy with R28T, I30T, E39Q, R40A, H43Q, T87R, E101D
light: B5 light
B11: M6-H3L2: humanized antibody of M6: huM6VH3 + huM6VL2 (antibody)
heavy: B2 heavy with E39Q, H43Q, T87R, E101D
light: B5 light
B12: M6-H6L2: humanized antibody of M6: huM6VH6 + huM6VL2 (antibody)
heavy: B2 heavy with S85Q
light: B5 light
B13: M6-H5L3: humanized antibody of M6: huM6VH5 + huM6VL3 (antibody)
heavy: B2 heavy
light: B5 light with E1D, L4M, F87V
B14: M6-H4L2: humanized antibody of M6: huM6VH4 + huM6VL2 (antibody)
heavy: B2 heavy with E101D
light: B5 light
B15: F4-1-H2L1: humanized antibody of F4-1: huF4-1VH2 + huF4-1VL1 (antibody)
heavy: EVQLVQSGAEVKKPGASVKVSCKASGYTFTDNYINWVRQAPGQRLEYIGWIYPGSGNNKFNEKFKGRVTLTVDTSARTAYMELSSLRSEDTAVYYCARDYPFPSYHYGMDYWGQGTTVTVSSASTKGPSVFPLAPSSKSTSGGTAALGCLVKDYFPEPVTVSWNSGALTSGVHTFPAVLQSSGLYSLSSVVTVPSSSLGTQTYICNVNHKPSNTKVDKKV[human IgG1 Fc not spelt out]
light: DIQMTQSPSSLSASVGDRVTITCSASSSVSYIHWFQQKPGKAPKLWIYSTSNLASGVPSRFSGSGSGTDFTLTISSLQPEDFATYYCQQRSSYPPTFGGGTKVEIKRTVAAPSVFIFPPSDEQLKSGTASVVCLLNNFYPREAKVQWKVDNALQSGNSQESVTEQDSKDSTYSLSSTLTLSKADYEKHKVYACEVTHQGLSSPVTKSFNRGEC
B16: F4-1-H2L4: humanized antibody of F4-1: huF4-1VH2 + huF4-1VL4 (antibody)
heavy: B15 heavy
light: B15 light with M4L, K41T, A42S, S59P, D69S, I74V
B17: F4-1-H3L2: humanized antibody of F4-1: huF4-1VH3 + huF4-1VL2 (antibody)
heavy: B15 heavy with V2I, K12V, A40R, R44G
light: B15 light with M4L, I74V
B18: F4-1-H2L3: humanized antibody of F4-1: huF4-1VH2 + huF4-1VL3 (antibody)
heavy: B15 heavy
light: B15 light with M4L, K41T, A42S, I74V
B19: F4-1-H3L4: humanized antibody of F4-1: huF4-1VH3 + huF4-1VL4 (antibody)
heavy: B15 heavy with V2I, K12V, A40R, R44G
light: B15 light with M4L, K41T, A42S, S59P, D69S, I74V
B20: F4-1-H3L1: humanized antibody of F4-1: huF4-1VH3 + huF4-1VL1 (antibody)
heavy: B15 heavy with V2I, K12V, A40R, R44G
light: B15 light
B21: F4-1-H1L3: humanized antibody of F4-1: huF4-1VH1 + huF4-1VL3 (antibody)
heavy: B15 heavy with I48M, L70I, R77S
light: B15 light with M4L, K41T, A42S, I74V
B22: F4-1-H3L3: humanized antibody of F4-1: huF4-1VH3 + huF4-1VL3 (antibody)
heavy: B15 heavy with V2I, K12V, A40R, R44G
light: B15 light with M4L, K41T, A42S, I74V

The first experiment concerns CHOK1-cyno-MUC1-C cells. The experiment is described as follows: FACS-based determination of affinity of chimeric and humanized anti-MUC1-C antibodies. In kind it is binding. More on the design: key: “+” means that there was binding; “−” means that there was no binding. Conditions: Table 19-1, Test 1. Here is the method:
HCC827-human-MUC1-C cells (in-house constructed overexpression stably transfected cell strain), CHOK1-cyno-MUC1-C cells (in-house constructed overexpression stably transfected cell strain), and T47D cells (human ductal breast cancer cells) were separately digested and added to a 96-well plate at 1E5 cells/well. After the plate was centrifuged at 300 g for 5 min, the supernatant was discarded, and the cells were washed once with a PBS buffer containing 2% FBS. The antibodies were 5-fold diluted from a starting concentration of 20 μg/mL using a PBS buffer containing 2% FBS to obtain a total of 8 concentration gradients. The antibody samples were added at 100 μL/well, and the cells were resuspended and incubated at 4° C. for 1 h. After the plate was centrifuged at 300 g for 5 min, the supernatant was discarded, and the cells were washed twice with a PBS buffer containing 2% FBS. […] After the plate was centrifuged at 300 g for 5 min, the supernatant was discarded, and the cells were washed twice with a PBS buffer containing 2% FBS. The cells were resuspended in 100 μL of a PBS buffer containing 2% FBS and analyzed using an instrument. […] The experimental process was the same as that in Test Example 1 “FACS-Based Determination of Affinity of Chimeric Antibodies”. In addition, CHOK1-human-MUC1-C cells (in-house constructed overexpression stably transfected cell strain) were used for evaluation.
On to B1, for which the Qualitative determination entry is given as “+”.

The experiment is the same for the next values; noted with them: Table 19-1, Test 2.
Turning to B1, the Qualitative determination entry is “+”.

Still in this experiment, the particulars now being: Table 19-2, Test 1.
For the molecule B2, the Qualitative determination result is on record as “+”.

As for B3, the Qualitative determination result is on record as “+”.

On to B4, for which the Qualitative determination result was “+”.

Staying with this experiment, now noted: Table 19-2, Test 2.
B5: the Qualitative determination entry is “+”.

With B6, the Qualitative determination entry is “+”.

As to B7, the Qualitative determination result is given as “+”.

For the molecule B8, the Qualitative determination entry is listed as “+”.

On to B9, for which the Qualitative determination entry is “+”.

In the case of B10, the Qualitative determination result is given as “+”.

For the molecule B11, the Qualitative determination entry was “+”.

Turning to B12, the Qualitative determination entry is on record as “+”.

In the case of B13, the Qualitative determination entry is recorded as “+”.

With B14, the Qualitative determination result is reported as “+”.

Staying with this experiment, now noted: Table 19-3.
Regarding B15, the Qualitative determination entry is “+”.

On to B16, for which the Qualitative determination result was “+”.

B17: the Qualitative determination result is “+”.

Consider B18, for which the Qualitative determination entry was “+”.

As to B19, the Qualitative determination result is given as “+”.

On to B20, for which the Qualitative determination entry is reported as “+”.

As to B21, the Qualitative determination entry was “+”.

With B22, the Qualitative determination result is reported as “+”.
